Molecular target: T1, PfDHODH (Plasmodium falciparum, UniProt Q08210)
T1 sequence (Q08210 24-569): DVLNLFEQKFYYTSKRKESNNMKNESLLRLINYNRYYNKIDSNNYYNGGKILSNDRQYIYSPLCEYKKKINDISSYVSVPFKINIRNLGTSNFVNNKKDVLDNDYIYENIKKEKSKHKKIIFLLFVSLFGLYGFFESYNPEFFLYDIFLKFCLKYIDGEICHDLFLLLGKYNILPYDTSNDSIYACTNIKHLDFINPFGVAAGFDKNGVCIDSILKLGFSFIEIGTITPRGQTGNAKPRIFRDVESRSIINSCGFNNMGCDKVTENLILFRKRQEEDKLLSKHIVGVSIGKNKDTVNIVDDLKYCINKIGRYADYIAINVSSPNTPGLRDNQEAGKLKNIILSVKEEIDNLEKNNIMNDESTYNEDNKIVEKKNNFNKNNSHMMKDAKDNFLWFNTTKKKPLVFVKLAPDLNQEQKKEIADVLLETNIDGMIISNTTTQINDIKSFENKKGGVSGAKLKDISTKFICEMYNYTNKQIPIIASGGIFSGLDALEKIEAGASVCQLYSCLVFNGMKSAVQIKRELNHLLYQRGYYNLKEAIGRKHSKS
Assay: biochemical
Conditions: Table 4, IC50 class
Procedure: Briefly, the assay solution contained 100 mM HEPES, pH 8.0, 150 mM NaCl, 10% glycerol, 0.1% Triton X-100, 20 micro molar COQD (coenzyme QD), 200 micro molar L-dihydroorotate, and 120 micro molar DCIP. Reactions are initiated by addition of enzyme to a final concentration in the range of about […] to about 50 nM while maintaining the temperature of a circulating water bath at 25° C.
Assay solutions were prepared as discussed above, except that DCIP is not present and the solution is depleted of oxygen by the inclusion of an oxidase/reductase system, such as, 0.1 mg/ml of glucose oxidase, 0.02 mg/ml catalase and 50 mM glucose. The data obtained is fitted to equation 1, to determine the IC50 values of the representative compounds.

`C=Cc1ccc(Nc2cc(C)nc3ncnn23)cc1` was tested, and the IC50 was < 2 µM.
